For experiment [1], the species on record is Homo sapiens. Kind of experiment: Binding affinity to IgG (unknown origin) assessed as dissociation rate constant.
A short description of experiment [2]: Binding affinity to IgG (unknown origin) assessed as dissociation constant. On the set-up: species or system Homo sapiens.

The term Kd denotes the concentration at which binding is half-saturated. `CC(=O)N[C@@H](CC(=O)O)C(=O)N[C@H]1CSSC[C@@H](C(=O)N[C@H](C(=O)N[C@@H](Cc2ccccc2)C(=O)N[C@@H](Cc2cnc[nH]2)C(N)=O)[C@@H](C)O)NC(=O)[C@H](Cc2c[nH]c3ccccc23)NC(=O)[C@H](C(C)C)NC(=O)[C@H](CC(C)C)NC(=O)[C@H](CCC(=O)O)NC(=O)CNC(=O)[C@H](CCCCN)NC(=O)[C@H](Cc2cnc[nH]2)NC(=O)[C@H](Cc2ccc(O)cc2)NC(=O)[C@H](C)NC1=O`: the Kdiss in experiment [1] worked out at 0.198 s⁻¹. Besides, the Kd in experiment [2] was 267 nM.

For the compound `CC(=O)N[C@@H](CC(=O)O)C(=O)N[C@H]1CSSC[C@@H](C(=O)N[C@H](C(=O)N[C@@H](Cc2ccccc2)C(=O)N[C@@H](Cc2cnc[nH]2)C(N)=O)[C@@H](C)O)NC(=O)[C@H](Cc2c[nH]c3ccccc23)NC(=O)[C@H](C(C)C)NC(=O)[C@H](CC(C)C)NC(=O)[C@H](CCC(=O)O)NC(=O)CNC(=O)[C@H](CC(C)C)NC(=O)[C@H](Cc2cnc[nH]2)NC(=O)[C@H](Cc2ccc(O)cc2)NC(=O)[C@H](C)NC1=O`, the Kdiss in experiment [1] was determined as 0.0116 s⁻¹. The Kd in experiment [2] stood at 8.19 nM.

Source of the values: ChEMBL document CHEMBL4311936, “Synthesis and structure-activity relationship studies of IgG-binding peptides focused on the C-terminal histidine residue” (Medchemcomm, 2019).
